# Apparent affinities of Ab-14 variants for a coronavirus HR2 peptide

Target: peptide PDVDLGDISGINAS, taken from heptad repeat 2 (HR2) of SARS-CoV-2 spike.

The variants keep the heavy chain, the linker and the frameworks of Ab-14 (scFv order VH, a 15-residue (Gly4Ser)3 linker, VL).
VH: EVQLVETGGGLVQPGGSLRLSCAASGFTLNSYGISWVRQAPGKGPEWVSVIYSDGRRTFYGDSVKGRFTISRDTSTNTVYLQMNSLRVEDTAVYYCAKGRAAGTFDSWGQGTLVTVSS
VL: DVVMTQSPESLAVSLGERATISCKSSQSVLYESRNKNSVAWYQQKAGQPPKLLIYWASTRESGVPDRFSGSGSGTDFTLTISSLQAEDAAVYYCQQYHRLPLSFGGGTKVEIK

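The parent was found by panning a naive human phage display library on the peptide. This is the validation round: designs drawn from the data on random variants, tested in the same kind of assay. Several design methods are mixed in this list. AlphaSeq pools MATa yeast showing the antibodies with MATalpha yeast showing the peptide. Pairs that bind mate more often; barcode pairs of the diploids are counted by sequencing. Each replicate has its own calibration line, from reference interactions of the BCL2 family. The assay was run in six technical replicates.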

Each variant is given by its three light chain CDRs, as the data file delimits them; those of the parent are KSSQSVLYESRNKNSVA, WASTRES, QQYHRLPLS. The Kd shown is the geometric mean over detected replicates; a lower Kd is a better binder. An entry "not detected" has no value in the source: the pair was not observed among the diploids in any replicate. This suggests poor binding but is not conclusive. Background: pairings of all light chain designs with three empty control strains gave a value in 4% of cases (median 430 nM, 5th percentile 38 nM). Values in that range, when seen in few replicates, are hard to tell from nonspecific mating. Also given: how often the same scFv was detected with the empty control strains.

CDR-L1	CDR-L2	CDR-L3	Kd (apparent)	replicates with signal	empty controls
KSSQSVLYESRNKNSVA	WATTRER	GQYHRLPLS	not detected	0/6	0/18
IISQVDAYLSRNKNSIA	DQSTRGS	QQYDRLPLS	3.2 nM	6/6	0/18
KFQQSVGYQTRNKNSVA	EASTRES	QQYHRLPLS	1.2 nM	6/6	4/18
DSSGSWLYESRNKNSVA	GASTRES	QQYHRLPLS	1.8 nM	6/6	2/18
KSTQSNLYESRNKNSVA	QASTRES	QQYHRLPLS	not detected	0/6	0/18
KMSQSVLYESRNKNSVA	DASQRES	QQYHRLPLS	580 pM	6/6	0/18
MISQIYNMGQFAINSVA	QASERSN	QQYDRLPLT	3.9 nM	6/6	0/18
KLAQGIYEPVRKSHNIA	EASHVCD	QQYERLPLE	1.5 nM	6/6	1/18
RISAHVYDETNTYENVA	NEHIRAN	QQYSRLPLS	1.2 nM	6/6	1/18
KMMQQQLYEDRMSNAVA	NASQRES	QQYHRLPLS	890 pM	6/6	0/18
MISDLMLYGSRARNPIA	NAETREY	QQYHRLPLE	3.5 nM	6/6	2/18
KSSQSVLYEDRNKNSVA	WASTQES	QQYHRLPLS	not detected	0/6	0/18
KIGMTLNQLQQKKNNVA	DLVHREN	QQYHRLPLS	2.2 nM	6/6	0/18
HISPSFMVESRLKNSVA	QTETREQ	QQYDRLPLS	3.3 nM	6/6	1/18
KTLQSVLYESRDKNSVA	HASTRED	QQYHRLPLS	5.4 nM	6/6	1/18
KSLQSVLYESRNQNSVA	HASTRED	QQYHRLPLS	4.4 nM	6/6	0/18
ASSQSVYYESRNKNSVA	WASTRES	QQYHRMPLS	70 nM	1/6	0/18
KWSQSVPMGDRNKNSVA	MAHKRES	QQYHRLPLS	55 nM	6/6	2/18
IFSQSVLMGNLTKNSVA	QASERFS	QQYHRLPLI	15 nM	6/6	0/18
KFSQSVLYESRTKNSVA	NASTRES	QWYHRWPLS	4.6 nM	6/6	1/18
KVQQGYWYESRNKNSVA	WASTREV	QQYHRLPLS	14 nM	6/6	1/18
KSSQSELYEVRNKNSVA	GASTREL	QQYHRLMLS	32 nM	1/6	0/18
KFSQKVLYEHRTQNSVA	NASTRES	QQYHRLPLS	460 pM	6/6	0/18
KLRQSTLYESRNINSVV	WASTRES	QQYHRLPLS	9.6 µM	1/6	1/18
KLGQSVAMTSRGKNNVA	DLNERER	QQYHRLPLS	790 pM	6/6	2/18
HISMMVGTKGGAKNSVA	NEETRYD	QQYHRLPLS	1.9 nM	6/6	0/18
KISQSFNVGTKNKNSLA	EMSTREF	QDYHRLPLS	4.7 nM	2/6	0/18
KSSQSVLFESRNKNPVA	SASTRES	QQYHRLPLS	220 nM	3/6	0/18
KLSWSVGYESRNPNNVA	NASTREL	QQYHRLPLS	590 pM	6/6	1/18
KSSQSYDYEDRNSNSVA	NASQREH	QQYHRLPLS	2.1 nM	6/6	3/18
QLSVFELQGMSWMQSIA	QASHRTE	QQFSRLPLV	3.7 nM	6/6	0/18
LSSISELYESPNKNSVA	EASTRES	QQYHRLPLS	3.0 nM	6/6	1/18
MVGQGLMGESRAKNSIA	QASLRCD	QQYHRLPLI	4.2 nM	6/6	1/18
KSSQSVLYEKTNKNSVA	WASTRES	QQYHRLPNS	not detected	0/6	0/18
KFQQSVLYESRNKNSVA	NASTRLS	QQYHRLPLS	830 pM	6/6	1/18
SISMSMAFLSRNKNSVA	ENSTRES	QQYHRLPLL	12 nM	6/6	1/18
KSSQGVLYESRNKNSVA	AASTLEP	QQYHRLPLS	3.7 nM	6/6	0/18
KIGMTLNQLMHQKNNVA	DLVERET	QQYFRLPLS	2.0 nM	6/6	1/18
KLQQSGLYESRNKNSVA	EASTRES	QQYHRLPLS	970 pM	6/6	2/18
KSSQSVLYEERPKNSMA	AASTRES	QQYHRLPLS	1.3 nM	6/6	0/18
KLSQSVLYEQRNKNSVA	QASTRES	QQYHRLPLS	3.0 nM	6/6	1/18
KISGYLNKEQKNKNSVA	EMVNRES	QQYDRLPLS	2.8 nM	6/6	0/18
KLSQSEMYESRNKNSVA	NASTRES	QQYHRLPLS	370 pM	6/6	1/18
MLSQMFEGLSTSKNPVA	QVSTREE	QQYHRLPLS	not detected	0/6	0/18
KVSMSMLYESRNKNSVA	NASQRES	QQYHRLPLS	480 pM	6/6	3/18
KLQSITGTEKVKGNNVA	EMETRER	QQYNRLPLA	2.0 nM	6/6	1/18
KSSVSVLYESRNKNSVA	WASTRES	QQTHRLPLS	not detected	0/6	0/18
KLSQSVLYESRNKNSVA	AASQRES	QQYHRLPLS	870 pM	6/6	0/18
KSSQSVLYESRNPNSVA	WASTRES	QAYHRLPLS	2.0 µM	1/6	0/18
KSFQEHLYESRNKNSVA	WASTREA	QGYTRLPLS	87 nM	1/6	0/18
KLQQSNLYESRNKNSVA	NASTRCS	QQYHRLPLS	630 pM	6/6	0/18
KYSFSVLEESRNSNAVA	NASTREE	QDYHRLPLS	31 nM	6/6	0/18
KSSISYLYESMNKNSVA	EASQRES	QQYHRLPLS	700 pM	6/6	1/18
KHSQSVLYESRNKNSVA	EASTRES	QQYHRLPLS	740 pM	6/6	1/18
KSSQSVNYESLNKASVA	WASTRES	QQYHRLPLS	210 nM	3/6	1/18
KISALYNYESTNKNSIA	EMTTRES	QHYHRLPLS	30 nM	6/6	1/18
KVDQSVLYYSLNKNSVA	AASLRES	QQYSRLPLS	1.6 nM	6/6	1/18
KISASVNYEMVIGQSVA	QMSTREE	QQYDRLPLS	17 nM	3/6	0/18

Extract of 4 entries:

{"CDR-L1": "KSLQSVLYESRNQNSVA", "CDR-L2": "HASTRED", "CDR-L3": "QQYHRLPLS", "Kd (apparent)": "4.4 nM", "replicates with signal": "6/6", "empty controls": "0/18"}
{"CDR-L1": "KHSQSVLYESRNKNSVA", "CDR-L2": "EASTRES", "CDR-L3": "QQYHRLPLS", "Kd (apparent)": "740 pM", "replicates with signal": "6/6", "empty controls": "1/18"}
{"CDR-L1": "KSSQSYDYEDRNSNSVA", "CDR-L2": "NASQREH", "CDR-L3": "QQYHRLPLS", "Kd (apparent)": "2.1 nM", "replicates with signal": "6/6", "empty controls": "3/18"}
{"CDR-L1": "KSSQSVLYESRNPNSVA", "CDR-L2": "WASTRES", "CDR-L3": "QAYHRLPLS", "Kd (apparent)": "2.0 µM", "replicates with signal": "1/6", "empty controls": "0/18"}

The authors' rule: three or more of the six replicates give a measured affinity, fewer mean a poor binder. Values of this round are not directly comparable with the first-round values of the same sequences.

From the AlphaSeq antibody data of Li et al. 2023 (doi:10.1038/s41467-023-39022-2), copy in the FLAb collection.